Literature values in paper PMC7931226 (Pharmacology Research & Perspectives, 2021).

System: P-gp (Mdr1a/b)
Settings: mouse genetic KO; cited from earlier work

C=C[C@H]1C[N@@]2CC[C@H]1C[C@@H]2[C@@H](O)c1ccnc2ccc(OC)cc12 [quinidine]
increase in Kp brain: 12.4 fold
